Rango dissoc inh – inhibition of RanGTP-driven Rango-importin beta dissociation; AID 540253; O95149+P62826; Biochemical FRET Rango-importin beta, RanGTP-induced dissociation; Potency, µM (top dose mostly 46.1 µM), for the others: top-dose activity change, negative = inhibition; 340,000 compounds, 0.071% hits; further: % of control where 0% means no effect; nearly all actives have a fitted effect of over 45% in size
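Rango/importin beta premix (0.1/0.25 uM final), PBS + 1 mM DTT + 0.02% Tween-20 + 0.1% BSA; cpd 5 min RT; FRET pre-read; + RanGTP-RCC1 (0.6 uM Ran, 2 mM GTP, 0.2 uM RCC1); 45 min RT; FRET post-read, ex 430, em 486/530 nm.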
Rango-impB inh – Rango-importin beta binding inhibition; Q14974; Rango CFP/YFP FRET sensor + importin beta, 45 min; Potency, µM (highest dose often 92.2 µM), for the others: at the top dose inhibition of complex formation; 340,000 compounds, 0.031% hits; AID 540263;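 further: 0% = DMSO wells and 100% = buffer wells lacking importin beta; nearly all actives have a fitted effect of over 15% in size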
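FRET biosensor (snurportin 1 IBB flanked by EYFP and cerulean), 50 nM, with compound 5 min, then 0.125 microM importin beta in PBS, 1 mM DTT, 0.02% Tween-20, 0.1% BSA. CFP/YFP ratio read after 45 min at room temperature; pre-read flags interference.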
gsp ag – gsp mutant agonism. gsp mutant cells, cAMP HTRF, 30 min. Potency, µM (highest dose often 76.9 µM), for the others: at the highest dose activation (cAMP increase), actives largely listed as activators. 340,000 compounds, 0.13% hits. AID 624287; active means well fitted activation curve with a large enough effect; inconclusive means small, poorly fitted or top-dose-only effect, or another doubt; inactive means no such curve, though single readings can be large or run the other way; cell line not stated here;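 further: phosphodiesterase inhibitor Ro 20-1724 added with compounds to block cAMP breakdown; nearly all actives have a fitted effect of over 60% in size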
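Cells in DMEM/10% FBS with G418 were pretreated with compounds in DMSO plus […] (300 uM stock) for 30 min at 37C. cAMP was measured by HTRF (cAMP-d2 plus anti-cAMP antibody-K) after 30 min at room temperature.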
gsp antagonist – gsp mutant antagonism; gsp-mutant cells, cAMP HTRF, 30 min; Potency, µM (highest dose often 76.9 µM), inactives show at the top dose activity change, negative = inhibition, actives largely listed as inhibitors; 340,000 compounds, 0.4% hits; AID 624288; calls by dose curve; cell line not stated here;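 further: intracellular cAMP measured with PDE inhibitor Ro 20-1724 present during compound exposure; on the % scale 0 is the no-effect control and ±100 the full control effect; nearly all actives have a fitted effect of over 65% in size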
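G418-selected cells were plated in DMEM/10% FBS for 16-24 h at 37C, then treated with compounds plus the PDE inhibitor […] (300 uM solution added) for 30 min at 37C. Intracellular cAMP was measured by HTRF after 30 min lysis at room temperature.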
* marks the source's active call; other numbers are inactive results; ? = inconclusive; . = not tested or not shown; [ ] = remark or other dose. Hits are enriched below; roughly 0.66% of the tested compounds scored in any of these assays. Unless noted, the call rests on the fitted dose curve. Potency means the concentration at half of the fitted maximal effect.

| entry | mol | Rango dissoc inh | Rango-impB inh | gsp ag | gsp antagonist |
| --- | --- | --- | --- | --- | --- |
| 1 | C#CCOCCOCCOCCNc1nc(N2CCN(C(=O)CCCCCCCCCCNC(=O)[C@H](CCCCN)n3cc(CCO)nn3)CC2)nc(N2CCN(C(=O)CCCCCCCCCCNC(=O)[C@H](CCCN=C(N)N)n3cc(C[C@@H](C)CC)nn3)CC2)n1 | ? | 65µM* | -12% | -22% |
| 2 | CCC(=O)Oc1ccc(NC(=O)c2ccc(S(=O)(=O)N3CCCC3)cc2)cc1 | . | . | -48% | . |
| 3 | COc1cc2ccccc2cc1C(=O)N/N=C/c1cccs1 | . | . | -54% | . |
| 4 | COc1ccc(NC(=O)CN2c3cccc4cccc(c34)S2(=O)=O)cc1OC | . | . | -49% | . |
| 5 | COc1ccccc1Nc1nc(-c2c(C)[nH]c3ccccc23)cs1 | 12µM* | ? | 0% | 5% |
| 6 | COc1ccc(OC)c(C2CC(=O)c3c([nH]c(C(=O)OCC4CCCO4)c3C)C2)c1 (stereo not drawn) | -9% | -14% | -47% | 40µM* |
| 7 | COc1ccccc1NC(=O)Cn1c(C)cc(=O)c2cccc(OC)c21 | 0% | 4% | 1%[15.4 µM] | 28µM* |
| 8 | Cc1nc(N2CCN(C(=O)c3ccco3)CC2)c2c3c(sc2n1)CC(C)CC3 (stereo not drawn) | 4% | ? | -5% | 14µM* |
| 9 | CCCCCC(=O)N1C[C@@H](n2cc(C3CC3)nn2)[C@H](O)C[C@@H]1c1ccc(Cl)cc1 | . | . | 16% | . |
| 10 | c1ccc(Nc2nc3ccccc3n3nnnc23)cc1 | 21µM* | ? | 6% | -3% |
| 11 | O=C(CCN1CCCCC1)c1cccc(Cl)c1 | -10% | 0% | 0% | 10% |
| 12 | O=C1CCC(C(=O)OCC(=O)Nc2ccc(SC(F)F)cc2)=NN1 | . | . | -43% | . |
| 13 | O=C(CSc1nnc(-c2ccncc2)n1Cc1ccco1)Nc1ccccc1Cl | 1% | 1% | 4% | 5% |
| 14 | O=C(CSc1nnc(-c2ccncc2)n1Cc1ccco1)Nc1nc(-c2ccccc2)cs1 | 4% | 4% | -7% | 35µM* |
| 15 | C=CCn1c(=O)/c(=C/c2ccc(Cl)cc2)s/c1=C(\C#N)c1nnc2n1CCCCC2 | -5% | 0% | 4% | -12% |
| 16 | COC(=O)C1=C(C)OC(N)=C(C#N)C1c1ccc(OC)c(CSc2ccccn2)c1 (stereo not drawn) | -22% | ? | 8% | 50µM* |
| 17 | COC(=O)C1=C(C)OC(N)=C(C#N)C1c1ccccc1 (stereo not drawn) | ? | ? | 1% | -4% |
| 18 | COCOCCn1cc(CN2CCS(=O)(=O)N(Cc3ccc(-c4ccccc4)cc3)C(C(C)C)C2=O)nn1 (stereo not drawn) | . | . | 16% | . |
| 19 | COC(=O)c1ccc(/C=C2\SC(=S)N(CCCC(=O)N3CCOCC3)C2=O)cc1 | -11% | -1% | -10% | 1% |
| 20 | COC(=O)c1ccc(/C=C2/SC(=S)N(CCC(=O)N3CCOCC3)C2=O)cc1 | 7% | 0% | -26% | 50µM* |

As entered above:
gsp ag with no. 18 → 16%
gsp ag with no. 3 → -54%
gsp ag with no. 5 → 0%

Carrying on:
| entry | mol | Rango dissoc inh | Rango-impB inh | gsp ag | gsp antagonist |
| --- | --- | --- | --- | --- | --- |
| 21 | Cc1c(N2CCCCC2)[nH]c2ccccc12 | . | . | -23% | . |
| 22 | CC(=O)Nc1ccc2c(c1)Cc1cc(N3C(=O)C=CC3=O)ccc1-2 | -4% | -5% | -5% | -5% |
| 23 | C[C@H](NC(=O)c1ccccc1)C(=O)OCC(=O)Nc1ccc(Cl)cn1 | . | . | 9% | . |
| 24 | CC[n+]1c(/C=C(\C)Nc2ccccc2)sc2ccccc21 | -2% | -1% | -8%[15.4 µM] | -2% |
| 25 | CC[n+]1c(/C=C/Nc2ccccc2)sc2ccccc21 | -4% | 1% | 10% | 45µM* |
| 26 | O=C(O)c1ccc(CNC(=O)C2CCN(S(=O)(=O)c3cccs3)CC2)cc1 | . | . | 3% | . |
| 27 | COc1ccc(-n2c(=S)[nH]c3c(oc4ccccc43)c2=O)cc1 | -9% | 4% | 11µM* | 1% |
| 28 | Cc1cccc(CCNC(=O)C2CC(O)CN2C(=O)Nc2ccccc2)c1 (stereo not drawn) | . | . | 3% | . |
| 29 | Cc1ccc(C(=O)Sc2cccccc2=O)cc1 | -6% | 5% | 26% | -23% |
| 30 | CCCCNc1c(-c2ccc(OC)c(SC(C)CC)c2)nc2cnccn12 (stereo not drawn) | ? | ? | . | 4% |
| 31 | COc1ccc(-c2nc3ccccn3c2NCc2ccc3c(c2)OCO3)cc1 | ? | -16% | ? | -8% |
| 32 | CCCCNc1c(-c2ccc(OC)c(SC(C)CC)c2)nc2cc(C)ccn12 (stereo not drawn) | -25% | ? | ? | 40µM* |
| 33 | CCC(C)Sc1cc(-c2nc3cc(C)ccn3c2NC2CCCCC2)ccc1OC (stereo not drawn) | -24% | ? | ? | 32µM* |
| 34 | COc1ccc(-c2cc(-c3nc4ccccn4c3NCc3ccccc3)ccc2OC)cc1 | 26µM* | ? | . | ? |
| 35 | CCC(C)Sc1cc(-c2nc3ccc(C)cn3c2NCc2ccccc2)ccc1OC (stereo not drawn) | 15µM* | ? | ? | ? |
| 36 | Cc1ccc(S(=O)(=O)N2C[C@H]3C(=O)C[C@@H](c4ccc(Cl)cc4)N(S(=O)(=O)c4ccccc4C)[C@H]3C[C@H]2c2ccc(Cl)cc2)cc1 | . | . | 23% | . |
| 37 | COc1ccc([C@H]2N[C@]3(CCCN(Cc4ccc(C)cc4)C3=O)[C@H]3C(=O)N(Cc4ccccc4)C(=O)[C@@H]23)cc1 | . | . | -17% | . |
| 38 | CCCCNc1c(-c2ccc(OC)c(SC(C)CC)c2)nc2ccc(C)cn12 (stereo not drawn) | ? | ? | . | 28µM* |
| 39 | CCCCNc1c(-c2ccc(OC)c(SC(C)CC)c2)nc2ccc(Cl)cn12 (stereo not drawn) | ? | ? | 5% | -21% |
| 40 | O=C(Nc1cc(S(=O)(=O)N2CCOCC2)ccc1N1CCCC1)c1ccccc1C(F)(F)F | 3% | 0% | -8% | -2% |

Structures listed so far with a furan ring, fused or not (4):
| entry | mol | Rango dissoc inh | Rango-impB inh | gsp ag | gsp antagonist |
| --- | --- | --- | --- | --- | --- |
| 8 | Cc1nc(N2CCN(C(=O)c3ccco3)CC2)c2c3c(sc2n1)CC(C)CC3 (stereo not drawn) | 4% | ? | -5% | 14µM* |
| 13 | O=C(CSc1nnc(-c2ccncc2)n1Cc1ccco1)Nc1ccccc1Cl | 1% | 1% | 4% | 5% |
| 14 | O=C(CSc1nnc(-c2ccncc2)n1Cc1ccco1)Nc1nc(-c2ccccc2)cs1 | 4% | 4% | -7% | 35µM* |
| 27 | COc1ccc(-n2c(=S)[nH]c3c(oc4ccccc43)c2=O)cc1 | -9% | 4% | 11µM* | 1% |

Further compounds
| entry | mol | Rango dissoc inh | Rango-impB inh | gsp ag | gsp antagonist |
| --- | --- | --- | --- | --- | --- |
| 41 | CC(=O)N1CCc2cc(S(=O)(=O)CCC(=O)N3CCc4ccccc4C3)ccc21 | -6% | 1% | 4% | -8% |
| 42 | CC(=O)N1CCc2cc(S(=O)(=O)NCCC(=O)N3CCc4ccccc4C3)ccc21 | -7% | 1% | 13% | 40µM* |
| 43 | C=CCn1c(SCC(N)=O)nnc1-c1cccc(Br)c1 | 10% | 0% | -30% | -1% |
| 44 | C=CCn1c(SCc2ccccc2C#N)nnc1-c1cc(Br)ccc1O | -17% | -3% | -2% | 35µM* |
| 45 | COc1ccc(S(=O)(=O)N(C)C[C@@H]2OCCCC[C@@H](C)Oc3ccc(NS(=O)(=O)c4cccs4)cc3C(=O)N([C@H](C)CO)C[C@@H]2C)cc1 | . | . | 8% | . |
| 46 | O=C(Nc1cccc(Cl)c1Cl)c1snnc1-c1ccccc1 | -5% | -4% | -28% | -9% |
| 47 | O=C(Nc1cc(Cl)ccc1O)c1snnc1-c1ccccc1 | 14% | -2% | 20% | 22µM* |
| 48 | COc1ccccc1S(=O)(=O)N(C)C[C@@H]1OCc2cnnn2CCCC(=O)N([C@H](C)CO)C[C@H]1C | . | . | -1% | . |
| 49 | Cc1ccc(Cl)cc1N1CCN(C(=O)C2CCN(S(=O)(=O)c3c(C)nn(C)c3C)CC2)CC1 | -16% | -1% | -5%[15.4 µM] | 40µM* |
| 50 | Cc1ccc(Cl)cc1N1CCN(C(=O)C2CCN(S(=O)(=O)c3cccnc3)CC2)CC1 | 26% | 3% | -1% | ? |
| 51 | Cc1ccc(C)c(N2CCN(C(=O)C3CCN(S(=O)(=O)c4cccc5nsnc45)CC3)CC2)c1 | -9% | -1% | 22% | 22µM* |
